Rows were chosen to be rich in hits. Some 2.1% of all compounds tested hit in one or more screens of this group.
Yeast UUG start – modulators of yeast start codon fidelity, primary screen, whole organism, S. cerevisiae, single point, plate reader; S. cerevisiae UUG-firefly luciferase reporter, luminescence/redox ratio; activity score, % at 18.7 µM; actives 0.13% (n = 350,000);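 active means replicate mean at a twofold rise or more, about +100% in these data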;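 further: firefly luciferase made from a UUG start codon reports start codon fidelity; reporter light over untreated wells divided by growth signal over untreated wells; some hits fall short of that in this replicate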
GSIS activator – GLuc luminescence reporter in INS-1E cells, primary screen for activators of glucose-dependent secretion of insulin; INS-1E GLuc reporter insulin secretion, 2-3 h; activation, % at 16.6 µM; 370,000 compounds, 0.61% hits; AID 743287, 2014;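 active = lowest replicate activation of at least 40%, so every replicate reaches that level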;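 also: 0% = median of neutral control wells and 100% = median of IBMX positive control wells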
Rev-erbA mod – modulators of Rev-erb alpha DNA binding, primary screen, biochemical, FITC-DNA, fluorescence polarization, uHTS | Nuclear receptor subfamily 1 group D member 1 (Homo sapiens), P20393 | Rev-erbα–FITC-DNA binding, 90 min | activity, % at 10 µM | 370,000 compounds, 0.79% hits;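 active = activity above about 14%, limit read from the data; passing the limit was not always enough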;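 also: 0% = DMSO wells with 35 nM protein and 100% = DMSO wells with 750 nM protein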
SMARCA2 activ – SMARCA2 (BRM) function activators, primary screen, cell-based, luminescence, high throughput; activation, % at 9.1 µM; 370,000 compounds, 1% hits; MG213 cells, MMTV-luciferase reporter, dexamethasone, overnight; in the data active = activation above about 7.8%;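 also: 0% = vehicle wells and 100% = reference activator wells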
ERp5 inh – inhibitors of ERp5-driven insulin aggregation, primary screen, biochemical, turbidity, absorbance 650 nm, single point. 90 min. inhibition, % at 9.99 µM. 350,000 compounds, 0.05% hits;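 active = mean replicate inhibition above about 25%, with every replicate also reaching it, limit read from the data, passing the limit was not always enough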
PDI turbidity – inhibitors of human PDI, primary screen, biochemical, turbidity, single point, plate reader | Protein disulfide-isomerase (Homo sapiens), P07237 | AID 588391, 2011 | 350,000 compounds, 0.052% hits | PDI insulin aggregation turbidity, A650, 90 min | inhibition, % at 10 µM;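 active = mean inhibition across replicates of 30% or more, whatever share of single replicates reach that level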
SMARCA2 conf – SMARCA2 (BRM) function activators, confirmation, cell-based, luminescence, triplicate; shares compounds with SMARCA2 activ; MG213 cells, MMTV-luciferase with dexamethasone, overnight; MG213 cells expressing E1A, Rb sequestered; DMSO wells 0%, reference activator 100%; activation, % at 9.1 µM; 3,500 compounds, 30% hits; AID 652260, 2013;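 active = activation above its plate's cutoff, the mean activation of tested wells plus 3 SD, cut at about 7.9% in these data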
VP16 Luc act – GAL4-VP16 luciferase reporter activation, counter-screen for SMARCA2 (BRM) activator project, cell-based, pG5luc, luminescence, high throughput; shares compounds with SMARCA2 activ; HEK293 GAL4-VP16 pG5luc reporter; scaled: DMSO wells 0%, SAHA wells 100%; activation, % at 9.1 µM; 3,500 compounds, 41% hits;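 active = activation above the solvent-only control well mean plus 3 SD, averaged across control plates, cut at about 5.2% in these data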
An asterisk follows results filed as active; . = no result given.

SMILES	Yeast UUG start	GSIS activator	Rev-erbA mod	SMARCA2 activ	ERp5 inh	PDI turbidity	SMARCA2 conf	VP16 Luc act
C[C@H]1CN([C@@H](C)CO)C(=O)Cc2cc(NC(=O)c3ccncc3)ccc2O[C@H]1CN(C)CC1CCCCC1	-9	3	.	.	0	.	.	.
Cc1ccc(S(=O)(=O)Nc2cccc3c2O[C@@H](CN(C)C(=O)Nc2cccc4ccccc24)[C@H](C)CN([C@H](C)CO)C3=O)cc1	.	7	.	.	.	.	.	.
C/C(=C\c1ccccc1)C(=O)Nc1cc(C)on1	-4	.	1	9.9*	.	1	5	6.9*
Cc1cc(NC(=O)Cc2ccccc2)no1	.	-6	0	2	.	-4	.	.
COCC(=O)N(C)C[C@H]1Oc2ncc(C#Cc3ccccc3)cc2C(=O)N([C@@H](C)CO)C[C@H]1C	-1	8	.	.	0	.	.	.
COc1ccc(NC(=O)c2ccc(-c3ccc(-c4noc(C)n4)cc3C)cc2)cc1N1CCN(C)CC1	7	.	3	13*	1	4	17*	0
Cn1cc(Br)c(C(=O)Nc2sc3c(c2C(N)=O)CCC3)n1	.	-9	1	8.7*	.	2	2	6.7*
O=C(COn1nnc2ccccc21)N1CCN(Cc2ccccc2)CC1	.	9	-1	10*	4	0	4	5
O=C(CCn1nnc2ccccc21)N1CCN(Cc2ccc3c(c2)OCO3)CC1	.	.	-7	-6	.	.	.	.
O=C(COn1nnc2ccccc21)NCC1CCCCC1	-1	.	-7	8.8*	.	-7	6	4
COc1ccccc1OCC(=O)NCC1CCCCC1	-19	.	-3	-1	.	8	.	.
COc1ccc(-c2ccc(C(=O)C3CC3)cc2)cc1	-19	-6	5	10*	3	20	8.2*	15*

Ordered by molar mass (lowest first): part of the list above
SMILES	Yeast UUG start	GSIS activator	Rev-erbA mod	SMARCA2 activ	ERp5 inh	PDI turbidity	SMARCA2 conf	VP16 Luc act
COc1ccc(-c2ccc(C(=O)C3CC3)cc2)cc1	-19	-6	5	10*	3	20	8.2*	15*
COCC(=O)N(C)C[C@H]1Oc2ncc(C#Cc3ccccc3)cc2C(=O)N([C@@H](C)CO)C[C@H]1C	-1	8	.	.	0	.	.	.
C[C@H]1CN([C@@H](C)CO)C(=O)Cc2cc(NC(=O)c3ccncc3)ccc2O[C@H]1CN(C)CC1CCCCC1	-9	3	.	.	0	.	.	.

Later entries:
SMILES	Yeast UUG start	GSIS activator	Rev-erbA mod	SMARCA2 activ	ERp5 inh	PDI turbidity	SMARCA2 conf	VP16 Luc act
COc1ccc(C(=O)C2CCN(C(=O)c3ccc(C)cc3)CC2)cc1	73	.	2	-4	.	4	.	.
c1ccc(-c2nc3nc4ccccc4nc3n2Cc2ccco2)cc1	-15	.	-4	8.0*	.	-3	7	14*
C[C@H](CO)N1C[C@H](C)[C@@H](CN(C)Cc2ccc3c(c2)OCO3)OCCCC[C@H](C)Oc2ccc(NS(=O)(=O)c3ccccc3)cc2C1=O	0	-8	.	.	2	.	.	.
COc1ccccc1C1=NOC(CN2C(=O)c3ccccc3S2(=O)=O)C1 (stereo not drawn)	.	24	-5	15*	1	-3	7	9.1*
COc1ccccc1C(=O)NCCC(=O)NC1CCCCC1C (stereo not drawn)	-15	5	5	-1	3	7	.	.
O=C(NC1CC2CCCC(C1)N2C(=O)NC1CCCCC1)c1ccc(F)cc1 (stereo not drawn)	0	.	0	-4	.	-9	.	.
COc1ccccc1C(=O)NCCC(=O)NC1CCC(C)CC1 (stereo not drawn)	-16	14	-6	10*	-6	17	5	0
COc1ccccc1C(=O)NC1CCCCCCC1	-15	.	3	8.0*	.	-3	5	3
O=C(NC1CCCC1)c1ccccc1OCc1ccccc1	-2	5	-2	1	1	0	.	.
O=C(NC1CCCCCCC1)c1ccc(F)cc1	-15	-9	2	12*	-4	14	12*	7.5*
O=C(C1CCCC1)N1CCCCN2[C@H](CO)[C@H](c3ccc(C#CC4CC4)cc3)[C@@H]2C1	18	.	.	.	0	.	.	.
CCCNC(=O)[C@H]1[C@H](CO)[C@H]2Cn3c(cccc3=O)[C@H]2N1C(=O)C1CC1	.	9	.	.	-2	.	.	.
CCN1C(=O)C(=O)N(CC(=O)c2cc(C)n(C3CC3)c2C)C1=O	-10	1	0	4	-2	4	.	.
CCCN1C(=O)C(=O)N(CC(=O)c2cc(C)n(C3CC3)c2C)C1=O	-7	13	2	12*	1	3	11*	8.7*
Cc1ccc(C)c(NC(=O)c2cc(-c3cc(C)c(C)cc3O)n[nH]2)c1	-2	23	-2	11*	3	0	4	5.9*
COc1cccc(CNC(=O)COC(=O)c2nc(Cl)c(Cl)c(Cl)c2Cl)c1	-19	0	-5	17*	-3	-8	26*	2
Oc1ccc(Cl)cc1CNc1cnc2ccccc2c1	-3	-17	-4	0	18	-4	.	.
Oc1ccccc1CNc1cnc2ccccc2c1	-6	-63	-4	11*	1	-1	9.5*	8.8*
O=C(N[C@H]1CC[C@@H](CCNC(=O)C2CCC2)O[C@@H]1CO)c1ccccn1	-4	23	.	.	0	.	.	.
Cc1ccc(NS(=O)(=O)c2c(C)nc3sccn3c2=O)cc1C	-9	13	-1	9.6*	2	8	-3	-1
Cc1[nH]c(=S)[nH]c(=O)c1Cc1c(O)ccc2ccccc12	.	-15	1	-2	-2	0	.	.
Cc1[nH]c(=S)[nH]c(=O)c1Cc1ccccc1	-5	12	0	16*	6	-6	0	1
C#CCn1c(O)c(N=NC(=O)CNC(=O)/C=C/c2ccccc2)c2ccccc21	-16	19	4	-1	3	5	.	.
C#CCn1c(O)c(N=NC(=O)CNC(=O)c2cccnc2)c2ccccc21	-26	12	2	9.8*	1	2	0	1
O=C1C[C@H](c2ccccc2)C(=O)N[C@H](c2ccccc2)C/C=C\C[C@H](c2ccccc2)N1	.	8	.	.	.	.	.	.
COCCCNC(=S)Nc1ccc(OC(F)F)cc1C	-27	-5	2	-3	0	3	.	.
COCCCNC(=S)Nc1cc(C)c(C)cc1C	.	.	2	8.6*	0	-6	5	1
N#CCn1cnc2sc(-c3ccccc3)cc2c1=O	.	3	-10	9.1*	0	5	11*	1
CCN(CC)CCn1c(=N)n(CC(O)c2ccc(OC)c(OC)c2)c2ccccc21 (stereo not drawn)	.	3	1	-1	3	-1	.	.
CCN(CC)CCn1c(=N)n(CC(O)COc2cccc(C)c2)c2ccccc21 (stereo not drawn)	.	56	-3	8.3*	-8	4	6	1

Two entries from above, with each value named.
N#CCn1cnc2sc(-c3ccccc3)cc2c1=O
  Yeast UUG start = .	GSIS activator = 3	Rev-erbA mod = -10	SMARCA2 activ = 9.1*	ERp5 inh = 0	PDI turbidity = 5	SMARCA2 conf = 11*	VP16 Luc act = 1
CCN(CC)CCn1c(=N)n(CC(O)c2ccc(OC)c(OC)c2)c2ccccc21 (stereo not drawn)
  Yeast UUG start = .	GSIS activator = 3	Rev-erbA mod = 1	SMARCA2 activ = -1	ERp5 inh = 3	PDI turbidity = -1	SMARCA2 conf = .	VP16 Luc act = .

Screens as filed in PubChem BioAssay.
